Experimental data from ChEMBL document CHEMBL4007392, “Modulating Mineralocorticoid Receptor with Non-steroidal Antagonists. New Opportunities for the Development of Potent and Selective Ligands without Off-Target Side Effects” (J Med Chem, 2017).

Protein sequences, listed by entry. Tags and fused reporters are not part of them.
UniProt P08235, whole entry C808S: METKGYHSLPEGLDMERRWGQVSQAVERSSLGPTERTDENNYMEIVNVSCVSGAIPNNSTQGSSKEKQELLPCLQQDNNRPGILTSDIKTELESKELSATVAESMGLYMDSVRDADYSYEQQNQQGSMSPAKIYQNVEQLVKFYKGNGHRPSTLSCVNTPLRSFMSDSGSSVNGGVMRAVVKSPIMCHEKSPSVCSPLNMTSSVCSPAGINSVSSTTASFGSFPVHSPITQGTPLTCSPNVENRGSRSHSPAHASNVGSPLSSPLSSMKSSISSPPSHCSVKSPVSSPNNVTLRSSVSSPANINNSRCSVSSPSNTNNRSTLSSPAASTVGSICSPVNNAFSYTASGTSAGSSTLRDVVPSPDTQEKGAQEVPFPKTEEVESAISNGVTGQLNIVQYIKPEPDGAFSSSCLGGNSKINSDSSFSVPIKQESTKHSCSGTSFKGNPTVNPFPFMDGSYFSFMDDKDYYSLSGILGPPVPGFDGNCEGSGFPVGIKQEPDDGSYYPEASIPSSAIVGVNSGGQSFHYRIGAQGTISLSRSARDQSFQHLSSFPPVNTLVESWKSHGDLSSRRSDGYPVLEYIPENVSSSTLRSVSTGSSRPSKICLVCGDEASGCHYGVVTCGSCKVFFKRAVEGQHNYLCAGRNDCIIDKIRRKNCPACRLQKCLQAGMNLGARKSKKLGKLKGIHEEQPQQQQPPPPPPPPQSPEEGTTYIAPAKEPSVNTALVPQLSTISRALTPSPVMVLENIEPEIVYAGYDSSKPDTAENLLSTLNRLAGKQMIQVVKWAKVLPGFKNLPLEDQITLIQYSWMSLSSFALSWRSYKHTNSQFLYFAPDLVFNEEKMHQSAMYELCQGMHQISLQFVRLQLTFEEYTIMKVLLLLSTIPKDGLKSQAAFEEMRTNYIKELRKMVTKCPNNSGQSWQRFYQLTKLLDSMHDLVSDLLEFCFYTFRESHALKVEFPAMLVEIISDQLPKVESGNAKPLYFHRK

target: Mineralocorticoid receptor (Homo sapiens, UniProt P08235, C808S); test: Binding affinity to N-terminal 6His-GST-tagged human MR LBD (727 to 984 residues) harboring C808S mutation expressed in Escherichia coli BL21DE3/corticosterone complex by AlphaScreen assay

Row | SMILES | IC50 [nM]
1 | CC(C)C[C@H](NC(=O)[C@H](CC(C)C)NC(=O)[C@H](CC(C)C)NC(=O)[C@H](CCCCN)NC(=O)[C@H](CCCCN)NC(=O)[C@H](CC(C)C)NC(=O)[C@H](CC(C)C)NC(=O)[C@H](CO)NC(=O)[C@@H]1CCCN1C(=O)[C@H](CCC(=O)O)NC(=O)[C@H](CCC(=O)O)NC(=O)[C@H](C)N)C(=O)N[C@@H](C)C(=O)N1CCC[C@H]1C(=O)N[C@@H](C)C(=O)O | 900
2 | CC[C@H](C)[C@H](NC(=O)[C@H](CCCCN)NC(=O)[C@H](Cc1cnc[nH]1)NC(=O)[C@H](CCCCN)NC(=O)[C@H](CCC(=O)O)NC(=O)[C@@H](N)CCCCN)C(=O)N[C@@H](CC(C)C)C(=O)N[C@@H](Cc1cnc[nH]1)C(=O)N[C@@H](CCCNC(=N)N)C(=O)N[C@@H](CC(C)C)C(=O)N[C@@H](CC(C)C)C(=O)N[C@@H](CCC(N)=O)C(=O)N[C@@H](CC(=O)O)C(=O)N[C@@H](CO)C(=O)N[C@@H](CO)C(=O)O | 2200
3 | CC[C@H](C)[C@H](NC(=O)[C@H](CCCCN)NC(=O)[C@H](Cc1cnc[nH]1)NC(=O)[C@H](CCCNC(=N)N)NC(=O)[C@H](CCC(=O)O)NC(=O)[C@@H](N)[C@@H](C)O)C(=O)N[C@@H](CC(C)C)C(=O)N[C@@H](Cc1cnc[nH]1)C(=O)N[C@@H](CCCNC(=N)N)C(=O)N[C@@H](CC(C)C)C(=O)N[C@@H](CC(C)C)C(=O)N[C@@H](CCC(N)=O)C(=O)N[C@@H](CCC(=O)O)C(=O)N[C@@H](CO)C(=O)N[C@@H](CO)C(=O)O | 1400
4 | CC(C)C[C@H](NC(=O)[C@H](CC(C)C)NC(=O)[C@H](Cc1ccc(O)cc1)NC(=O)[C@H](CCCNC(=N)N)NC(=O)[C@H](CC(C)C)NC(=O)[C@H](CC(C)C)NC(=O)[C@H](CCC(N)=O)NC(=O)[C@H](Cc1cnc[nH]1)NC(=O)[C@H](CC(=O)O)NC(=O)[C@H](CCCCN)NC(=O)[C@@H](N)CO)C(=O)N[C@@H](CC(=O)O)C(=O)N[C@@H](CCCCN)C(=O)N[C@@H](CC(=O)O)C(=O)N[C@@H](CCC(=O)O)C(=O)O | 1600
